Source: article PMC10671074, “Tumor Regression upon Intratumoral and Subcutaneous Dosing of the STING Agonist ALG-031048 in Mouse Efficacy Models” (International Journal of Molecular Sciences, 2023)

Chains of the proteins cited; added tags and fusions are not shown.
UniProt Q86WV6, whole entry H232R: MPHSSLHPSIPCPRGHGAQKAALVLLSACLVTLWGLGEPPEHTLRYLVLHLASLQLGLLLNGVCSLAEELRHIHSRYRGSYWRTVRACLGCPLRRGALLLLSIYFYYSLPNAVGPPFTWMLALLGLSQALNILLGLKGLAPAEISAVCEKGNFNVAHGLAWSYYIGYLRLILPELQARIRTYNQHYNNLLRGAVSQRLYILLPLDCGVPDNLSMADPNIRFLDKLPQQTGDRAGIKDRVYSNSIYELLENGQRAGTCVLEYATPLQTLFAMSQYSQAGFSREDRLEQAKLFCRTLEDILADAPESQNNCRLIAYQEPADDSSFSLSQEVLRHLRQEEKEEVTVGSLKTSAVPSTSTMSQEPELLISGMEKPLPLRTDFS

Assays:
[1] = tested on: HEK 293 cells lacking functional STING; assay: HEK 293 STING Dual Null IRF reporter assay; conditions: read-out: Reporter Cell Assay EC50, STING Dual Null IRF; HEK 293 STING null cell line; mean±standard deviation
[2] = molecular target: STING R232 (Homo sapiens, UniProt Q86WV6, H232R); assay: HEK 293 STING R232 IRF reporter assay; format: cell-based; set-up: host or cells: 293T-Dual hSTING-R232 (HEK 293T derived); conditions: HEK 293 STING R232 cells, digitonin dosing buffer 30 min, 20 h; mean±standard deviation; read-out: Reporter Cell Assay EC50, STING R232 IRF

IFN-β: interferon β used as STING-independent control in the reporter cells
EC50 [1]: 8.55 ± 9.95 µM | EC50 [2]: 0.84 ± 0.86 µM
